Measured values reported in US9388419B2, “Methods for producing 3-hydroxypropionic acid and other products” (The Regents of the University of Colorado, a body corporate, priority 2009, dated 2016).

Assays:
E. coli Mach1-T1 = experiment: Minimum inhibitory concentration (MIC) of 3-HP, microaerobic, 96 well-plate, MOPS minimal media; type: cell-based, Escherichia coli; settings: Mach1-T1 with feedback resistant aroH mutant plasmid
Protocol: The minimum inhibitory concentration (MIC) using commercially obtained 3-HP (TCI America, Portland, Oreg. USA, see 3-HP preparation herein) was determined microaerobically in a 96 well-plate format. Overnight cultures of strains were grown in 5 ml LB (with antibiotic where appropriate). A 1 v/v % was used to inoculate a 15 ml conical tube filled to the top with MOPS minimal media and capped. After the cells reached mid exponential phase, the culture was diluted to an OD600 of 0.200. The cells were further diluted 1:20 and a 10 ul aliquot was used to inoculate each well (˜10^4 cells per well). The plate was arranged to measure the growth of variable strains or growth conditions in increasing 3-HP concentrations, 0-70 g/L, in 5 g/L increments, as well as either media supplemented with optimal supplement concentrations which were determined to be: 2.4 mM tyrosine (Sigma), 3.3 mM phenylalanine (Sigma), 1 mM tryptophan (Sigma), 0.2 mM p-hydroxybenzoic acid hydrazide (MP Biomedicals), 0.2 mM p-aminobenzoic acid (MP Biomedicals), 0.2 mM 2,3-dihydroxybenzoic acid (MP Biomedicals), 0.4 mM shikimic acid (Sigma), 2 mM pyridoxine hydrochloride (Sigma), 35 uM homoserine (Acros), 45 uM homocysteine thiolactone hydrochloride (MP Biomedicals), 0.5 mM oxobutanoate (Fluka), 5 mM threonine (Sigma). […]
The minimum inhibitory concentration (MIC) was determined microaerobically in a 96 well-plate format. […]

E. coli = type: cell-based, Escherichia coli; settings: strain BW25113, M9 media with the named supplement(s), aerobic; MIC of 3-HP versus M9 control without supplement
Protocol: For MIC evaluations, the final results are expressed in chemical agent concentrations determined by analysis of the stock solution by HPLC (i.e., see Subsection Mb).
The minimum inhibitory concentration (MIC) was determined aerobically in a 96 well-plate format. […] Media supplements were added according to levels reported in the Supplements Table, where specified. Overnight cultures of strains were grown in triplicate in 5 mL LB (with antibiotic where appropriate). A 1% (v/v) inoculum was introduced into a 5 ml culture of M9 minimal media.

Compound	fold increase in MIC of 3-HP, cells comprising the aroH mutant vs control (E. coli Mach1-T1) [times]	% Increase Over Control (E. coli) [%]
O=C(O)CCO [3-HP, 3-hydroxypropionic acid]	1.4	–
NCCCCCN [Cadaverine (C)]	–	27
NCCCCN [Putrescine(C)]	–	9
NCCCCNCCCN [Spermidine (C)]	–	45
